This assay concerns the target human D3 expressed in HEK cells (Homo sapiens, UniProt P35462). Put plainly: D3 receptor radioligand filtration binding assay. To be noted: Ki for D3 receptors/Ki for D2 receptors as printed; fold selectivity for D3R.

Amino acid sequences for entries named in this document (tags omitted).
UniProt P35462, whole entry: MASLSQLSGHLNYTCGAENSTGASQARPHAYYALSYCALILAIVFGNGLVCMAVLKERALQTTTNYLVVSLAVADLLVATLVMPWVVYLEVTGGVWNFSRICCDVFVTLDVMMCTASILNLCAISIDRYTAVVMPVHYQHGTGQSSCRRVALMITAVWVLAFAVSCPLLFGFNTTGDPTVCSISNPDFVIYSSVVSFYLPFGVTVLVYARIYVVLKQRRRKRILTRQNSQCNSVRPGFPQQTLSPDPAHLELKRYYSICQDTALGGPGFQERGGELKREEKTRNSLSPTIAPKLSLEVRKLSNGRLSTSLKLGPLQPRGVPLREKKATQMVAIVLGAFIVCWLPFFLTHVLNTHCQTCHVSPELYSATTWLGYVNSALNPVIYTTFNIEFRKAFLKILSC

`COc1ccccc1N1CCC2(CCN(CCCSc3nnc(-c4ccccc4)n3C)CC2)CC1` [Compound 15a]: the “D3R/D2R Ratio (selectivity)” value is reported as “over 900”.

The values above are taken from paper PMC5767125 (Journal of medicinal chemistry, 2017).
